Biological target: purified recombinant HDAC5 (Homo sapiens, UniProt Q9UQL6)
Experiment: HDAC fluorometric activity assay, purified HDAC5
Settings: data not shown

Protein sequences, listed by entry. Tags and fused reporters are not part of them. Lines headed by an entry give the natural chain unless they say otherwise; changes in a name come on top.
UniProt Q9UQL6: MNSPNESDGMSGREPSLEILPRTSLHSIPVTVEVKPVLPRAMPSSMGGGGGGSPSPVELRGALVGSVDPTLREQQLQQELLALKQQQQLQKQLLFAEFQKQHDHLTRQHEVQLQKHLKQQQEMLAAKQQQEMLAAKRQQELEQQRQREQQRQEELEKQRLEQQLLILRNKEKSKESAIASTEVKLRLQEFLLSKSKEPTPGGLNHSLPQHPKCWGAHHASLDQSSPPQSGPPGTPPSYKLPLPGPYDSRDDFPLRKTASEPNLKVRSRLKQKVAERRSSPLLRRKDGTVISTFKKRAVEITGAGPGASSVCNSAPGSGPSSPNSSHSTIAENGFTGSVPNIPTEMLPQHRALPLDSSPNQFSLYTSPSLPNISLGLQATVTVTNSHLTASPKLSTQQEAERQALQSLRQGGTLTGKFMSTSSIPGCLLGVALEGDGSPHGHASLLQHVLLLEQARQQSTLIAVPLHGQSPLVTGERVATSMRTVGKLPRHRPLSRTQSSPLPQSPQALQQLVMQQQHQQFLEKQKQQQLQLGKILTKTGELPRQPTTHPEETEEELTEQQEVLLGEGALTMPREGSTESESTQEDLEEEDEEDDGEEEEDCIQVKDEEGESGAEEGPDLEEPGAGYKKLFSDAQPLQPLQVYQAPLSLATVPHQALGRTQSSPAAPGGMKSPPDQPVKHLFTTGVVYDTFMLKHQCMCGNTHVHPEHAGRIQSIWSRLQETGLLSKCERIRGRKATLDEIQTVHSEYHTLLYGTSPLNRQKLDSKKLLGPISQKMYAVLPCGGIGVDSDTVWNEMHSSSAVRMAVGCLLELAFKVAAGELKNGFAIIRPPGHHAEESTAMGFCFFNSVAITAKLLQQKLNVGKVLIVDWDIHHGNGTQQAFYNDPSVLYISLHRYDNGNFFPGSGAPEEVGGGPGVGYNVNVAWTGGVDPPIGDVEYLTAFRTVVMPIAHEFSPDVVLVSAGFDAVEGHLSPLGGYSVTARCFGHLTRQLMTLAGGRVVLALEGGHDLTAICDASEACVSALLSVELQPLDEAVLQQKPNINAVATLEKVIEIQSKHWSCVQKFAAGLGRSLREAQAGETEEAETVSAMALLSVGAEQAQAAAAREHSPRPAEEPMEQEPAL

trichostatin A
inhibition of HDAC5 activity: similarly sensitive
